Measured values reported in EP4847521A1, “PEPTIDE-BASED PROBES FOR DIAGNOSIS OF DISEASE AND USES THEREOF” (dated 2026).

Sequences of proteins named here, by UniProt entry; tags and fusion partners are left off.
UniProt Q9HCE7, whole entry: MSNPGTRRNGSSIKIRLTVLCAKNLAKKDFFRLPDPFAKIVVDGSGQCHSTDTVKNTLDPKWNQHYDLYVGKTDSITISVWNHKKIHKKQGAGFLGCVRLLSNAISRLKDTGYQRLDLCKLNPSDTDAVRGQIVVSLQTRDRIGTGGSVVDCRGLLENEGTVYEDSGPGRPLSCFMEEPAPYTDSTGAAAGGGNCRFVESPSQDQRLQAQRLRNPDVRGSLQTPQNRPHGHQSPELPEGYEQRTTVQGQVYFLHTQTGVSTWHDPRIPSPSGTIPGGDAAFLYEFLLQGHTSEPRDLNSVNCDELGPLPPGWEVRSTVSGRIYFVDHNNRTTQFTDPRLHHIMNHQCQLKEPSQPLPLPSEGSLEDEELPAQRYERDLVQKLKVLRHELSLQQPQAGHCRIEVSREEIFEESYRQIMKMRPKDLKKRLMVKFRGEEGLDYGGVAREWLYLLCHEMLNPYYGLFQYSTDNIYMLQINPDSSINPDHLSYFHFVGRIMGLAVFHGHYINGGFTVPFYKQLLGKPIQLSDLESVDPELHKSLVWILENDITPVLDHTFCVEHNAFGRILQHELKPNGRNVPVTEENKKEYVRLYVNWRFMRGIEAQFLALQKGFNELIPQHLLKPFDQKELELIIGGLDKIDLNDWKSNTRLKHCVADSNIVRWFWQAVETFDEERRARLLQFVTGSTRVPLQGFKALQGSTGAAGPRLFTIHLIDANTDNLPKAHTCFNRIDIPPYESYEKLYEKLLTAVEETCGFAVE

Columns and labels:
[1] = test system: human osteosarcoma (HOS) cells; assay: FRET fluorescence recovery analysis in Smurf-1-positive cells; conditions: positive for Smurf-1 expression, FITC/BHQ-1 quenched peptides
From the text: (§1) In order to investigate the binding interaction between the bioactive peptide (SBP) sequence and Smurf-1 by a quenching strategy referred to as fluorescence resonance energy transfer (FRET), the fusion peptide was further modified with an activatable fluorescent dye. BHQ-1 can quench fluorescence of fluorescein isothiocyanate (FITC) with high efficiency. […] This is likely the result of a structural change in the peptide caused by relatively large Smurf-1. In order to examine the following results in vitro, FRET analysis was performed on human osteosarcoma (HOS) cells, which are positive for Smurf-1 expression, and mouse fibroblasts (NIH3T3), which are negative for Smurf-1 expression (FIG. 3).

[2] = target: human-derived Smurf1 protein (Homo sapiens, UniProt Q9HCE7); assay: Surface plasmon resonance (BIACORE T100) binding and kinetic analysis of peptides on immobilized Smurf1
Method: Data are presented as mean ± standard error of the mean (*p < 0.05, ***p < 0.01).
In order to chemically confirm the binding affinity between the fusion peptide synthesized by the method of Example 1, and Smurf1, human-derived Smurf1 protein acting as a ligand in this experiment was purchased from OriGene Technologies (Rockville, MD, USA). 100 mg/mL of the protein was immobilized on a gold-coated surface of a CM5 chip (Cytiva, Sweden), in which amino groups were bound to the surface, using an EDC/NHS kit (BIACORE AB, Sweden) (the above experimental method may alternatively use "Immobilization" embedded in BIACORE T100 (BIACORE AB, Sweden) software used by the present inventors). At this time, in order to find an appropriate pH condition under which the protein can bind to amino groups of the CM5 chip, a method referred to as "pH scouting" was performed to determine a pH condition. For the "pH scouting" experimental method, the method embedded in BIACORE T100 (BIACORE AB, Sweden) software used by the present inventors may alternatively be used. After immobilizing the ligand under the pH condition determined by this method, analytes (the fusion peptide synthesized in Example 1, the cell-penetrating peptide of Comparative Example 1 used as a negative control, and the inflammatory marker-binding sequence of Comparative Example 2 used as a positive control) were each flowed over the CM5 chip at 10 mM, and binding affinity was measured (the above experimental method may alternatively use "binding analysis" embedded in BIACORE T100 (BIACORE AB, Sweden) software used by the present inventors).

[3] = test system: mouse fibroblasts (NIH3T3); assay: FRET fluorescence recovery analysis in Smurf-1-negative cells; conditions: negative for Smurf-1 expression, FITC/BHQ-1 quenched peptides
From the text: as §1

Which fluorescence signal [1] does the source give for SSRKKNPNCRRH here?
Its fluorescence signal is “recovery of a fluorescence signal was not observed”.

What about the “apparent association constants (KA)” value ([2]; SPR) of the same sequence?
Its value is 412900 M⁻¹.

And the “apparent dissociation constants (KD = 1/KA)” value ([2]; SPR)?
The value was 2422 nM.

What about the “Ka (1/MS)” value ([2]; SPR association rate, Table 1) of the same sequence?
The value was 2447 1/MS.

What about the “Kd” value ([2]; SPR dissociation rate, Table 1) of the same sequence?
The value was 0.005927 s⁻¹.

What about the “binding affinity to Smurf1” value ([2]; SPR response, analytes each flowed over the CM5 chip at 10 mM) of the same sequence?
The value was 100 RU.

And the “KA” value ([2]; SPR, Table 1)?
Its value is 412900 M⁻¹.

What about the “Rmax (RU)” value ([2]; SPR, Table 1) of the same sequence?
Its value is 22.4 RU.

And the fluorescence signal [3]?
The fluorescence signal was “recovery of a fluorescence signal was not observed”.
